Test results published in patent publication US12139487B2, “Compounds and uses thereof” (Foghorn Therapeutics Inc., priority 2022, dated 2024).

Test system: uveal melanoma and hematologic cancer cell lines versus other tested cell lines
Test: Growth of uveal melanoma, hematological and other cancer cell lines with Compound A (Cell-titer glo, day 3 and day 7, GI50)
Type: cell-based
Conditions: uveal melanoma and hematologic cancer cell lines vs other tested cell lines; 0 to 10 micromolar; FIG. 1
Method: Procedure: Uveal melanoma cell lines (92-1, MP41, MP38, MP46), prostate cancer cell lines (LNCAP), lung cancer cell lines (NCI-H1299), and immortalized embryonic kidney lines (HEK293T) were plated into 96 well plates with growth media (see Table 9). […] Cells were incubated at 37 degrees Celsius for 3 days. After three days of treatment, the media was removed from the cells and 30 microliters of TrypLE (Gibco) was added to cells for 10 minutes. Cells were detached from the plates and resuspended with the addition of 170 microliters of growth media. Cells from two DMSO-treated control wells were counted, and the initial number of cells plated at the start of the experiment, were re-plated into fresh-compound containing plates for an additional four days at 37 degrees Celsius. At day 7, cells were harvested as described above. On day 3 and day 7, relative cell growth was measured by the addition of Cell-titer glo (Promega) and luminescence was measured on an Envision plate reader (Perkin Elmer). […] At the time of cell splitting on days 3 and 7, cells were split into new 96 well plates, and fresh compound was added four hours after re-plating.

CSCC[C@H](NC(=O)c1ccc(N)cc1)C(=O)Nc1nc(-c2cccc(-c3ccncc3)c2)cs1 [Compound A]
sensitivity of cell lines to BRG1/BRM inhibition (growth, GI50): more sensitive to BRG1/BRM inhibition than the other tested cell lines
